Measured values: patent US5948798A, “Pyridiniminyl-1,2-benzisoxazoles and -benzisothiazoles” (Hoechst Marion Roussel, Inc., priority 1997, dated 1999)
pIC50: −log10 of the molar value.

Chains of the proteins cited; added tags and fusions are not shown.
UniProt P19643, whole entry: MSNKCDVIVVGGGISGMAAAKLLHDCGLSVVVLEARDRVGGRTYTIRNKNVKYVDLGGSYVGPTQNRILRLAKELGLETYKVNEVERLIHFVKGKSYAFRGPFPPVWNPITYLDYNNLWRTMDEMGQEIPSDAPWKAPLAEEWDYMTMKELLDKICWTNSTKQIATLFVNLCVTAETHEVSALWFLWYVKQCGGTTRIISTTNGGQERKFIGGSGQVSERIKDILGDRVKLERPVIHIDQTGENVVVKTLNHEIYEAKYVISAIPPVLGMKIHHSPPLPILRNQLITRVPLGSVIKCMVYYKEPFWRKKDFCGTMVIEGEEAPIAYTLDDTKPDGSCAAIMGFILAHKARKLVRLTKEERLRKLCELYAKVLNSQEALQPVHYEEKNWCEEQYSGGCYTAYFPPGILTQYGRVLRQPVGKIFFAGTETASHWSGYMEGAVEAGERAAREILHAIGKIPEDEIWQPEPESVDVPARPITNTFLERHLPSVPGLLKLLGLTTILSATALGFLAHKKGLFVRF

Target: T1, Monoamine Oxidase B (Rattus norvegicus, UniProt P19643)
T1 construct: serves as the tissue source for mitochondrial monoamine oxidase; from tissue; host or cells: male Wistar rat whole brain minus cerebellum, 18,000 g pellet (P2)
Test: in vitro inhibition of monoamine oxidase assay (monoamine oxidase B)
Assay type: biochemical, rat (male Wistar, whole brain minus cerebellum)
Settings: rat brain mitochondria, [14C]-phenethylamine 200 μM, pH 7.4, 37° C., 30 min; log-probit
Procedure: The pyridiniminyl-1,2-benzisoxazoles and -benzisothiazoles of the present invention are also useful as agents for treating depression. […] In this assay, a modification of an assay described by M. V. Kindt, et al., Europ. J. Pharmacol. 146: 313-318 1988.
The following reagents are prepared:
1. Phosphate buffer (0.5M), pH 7.4;
134.4 g dibasic sodium phosphate heptahydrate q.s. to 1 liter in distilled water (A) 17.3 g monobasic sodium phosphate q.s. to 250 mL in distilled water (B) Adjust pH of A to 7.4 by slowly adding B (volumes as needed)
Dilute 1:10 in distilled water (0.05M phosphate buffer, pH 7.4)
2. 0.25M Sucrose (phosphate buffered):
21.4 g sucrose, q.s. to 250 mL with 0.05M phosphate buffer
4. Substrate for monoamine oxidase-B a. -phenethylamine is obtained from Sigma Chemical Company. A 5 mM stock solution is made up in 0.01 N-hydrochloride. The solution is used to dilute the specific activity of the [^14 C]- --phenethylamine. […]
b. --[ethyl-1-^14 C]-phenethylamine hydrochloride (40-50 mCi/mmol) is obtained from New England Nuclear. c. […]
Tubes are preincubated for 15 minutes at 37° C. and the assay is started by adding 40 μl of combined substrate ([^3 H]-5-hydroxytryptamine and [^14 C]- -phenethylamine) at 15 second intervals. […] Tissue blank values are determined by adding the acid before the radioactive substrate. […] IC50 values are determined by log-probit analysis.

Q: With COc1cc(Br)c2oc(C3CCNCC3)cc2c1 [brofaromine, reference compound] as the molecule, how does the pIC50 read?
A: 4.63
